These results are taken from article PMC6380069, “H2S suppresses indoleamine 2, 3-dioxygenase 1 and exhibits immunotherapeutic efficacy in murine hepatocellular carcinoma” (Journal of Experimental & Clinical Cancer Research : CR, 2019).

By UniProt entry, the sequences of proteins in these tests, tags left out.
UniProt P14902, whole entry: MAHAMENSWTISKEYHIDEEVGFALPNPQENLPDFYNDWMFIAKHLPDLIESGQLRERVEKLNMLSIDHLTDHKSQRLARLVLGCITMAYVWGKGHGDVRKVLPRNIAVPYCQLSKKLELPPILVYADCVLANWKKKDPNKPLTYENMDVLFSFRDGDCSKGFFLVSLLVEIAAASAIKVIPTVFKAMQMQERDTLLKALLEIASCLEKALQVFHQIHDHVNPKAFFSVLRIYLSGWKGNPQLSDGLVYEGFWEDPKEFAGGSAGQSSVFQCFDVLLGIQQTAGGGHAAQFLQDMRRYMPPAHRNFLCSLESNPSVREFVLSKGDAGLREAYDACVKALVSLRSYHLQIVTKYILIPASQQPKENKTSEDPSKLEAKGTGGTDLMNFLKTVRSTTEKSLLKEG

This assay concerns the target T1, indoleamine 2, 3-dioxygenase 1 (rhIDO1) (Homo sapiens, UniProt P14902).
T1 construct: gene IDO1

Take `[N]=O` [nitric oxide]: the “in-vitro enzymatic assay with purified rhIDO1; NO delivered by the donor sodium” value is “Combined data demonstrated that NO rather than H2S was a direct inhibitor of IDO1”.
